Data from patent US10934274B2, “Quinoline derivatives as TAM RTK inhibitors” (Qurient Co., Ltd., priority 2015, dated 2021).

Protein sequences, listed by entry. Tags and fused reporters are not part of them. Residues count along the entry.
UniProt P30530, 26-894 limits assumed: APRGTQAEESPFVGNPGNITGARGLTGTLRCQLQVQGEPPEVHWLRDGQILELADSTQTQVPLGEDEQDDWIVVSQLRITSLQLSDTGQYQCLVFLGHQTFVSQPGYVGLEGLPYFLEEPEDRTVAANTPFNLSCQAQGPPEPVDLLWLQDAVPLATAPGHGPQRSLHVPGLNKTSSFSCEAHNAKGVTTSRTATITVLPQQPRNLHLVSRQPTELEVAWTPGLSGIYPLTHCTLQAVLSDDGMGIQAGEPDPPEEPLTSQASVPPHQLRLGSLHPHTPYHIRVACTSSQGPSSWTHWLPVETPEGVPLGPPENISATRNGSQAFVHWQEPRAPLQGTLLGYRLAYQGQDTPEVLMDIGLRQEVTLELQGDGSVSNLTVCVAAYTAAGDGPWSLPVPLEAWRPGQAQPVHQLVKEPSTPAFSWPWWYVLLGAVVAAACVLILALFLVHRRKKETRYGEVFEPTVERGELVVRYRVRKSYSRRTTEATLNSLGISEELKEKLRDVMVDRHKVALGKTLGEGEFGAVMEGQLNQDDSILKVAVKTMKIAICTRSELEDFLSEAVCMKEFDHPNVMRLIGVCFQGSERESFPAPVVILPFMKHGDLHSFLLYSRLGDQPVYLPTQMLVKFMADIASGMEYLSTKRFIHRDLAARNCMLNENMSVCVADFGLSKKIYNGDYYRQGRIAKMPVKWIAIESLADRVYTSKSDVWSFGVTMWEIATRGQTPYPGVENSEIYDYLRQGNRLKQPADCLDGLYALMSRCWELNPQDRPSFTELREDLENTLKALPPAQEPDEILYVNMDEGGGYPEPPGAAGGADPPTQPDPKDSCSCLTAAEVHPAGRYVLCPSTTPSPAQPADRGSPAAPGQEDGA
UniProt Q12866, 21-999 limits assumed: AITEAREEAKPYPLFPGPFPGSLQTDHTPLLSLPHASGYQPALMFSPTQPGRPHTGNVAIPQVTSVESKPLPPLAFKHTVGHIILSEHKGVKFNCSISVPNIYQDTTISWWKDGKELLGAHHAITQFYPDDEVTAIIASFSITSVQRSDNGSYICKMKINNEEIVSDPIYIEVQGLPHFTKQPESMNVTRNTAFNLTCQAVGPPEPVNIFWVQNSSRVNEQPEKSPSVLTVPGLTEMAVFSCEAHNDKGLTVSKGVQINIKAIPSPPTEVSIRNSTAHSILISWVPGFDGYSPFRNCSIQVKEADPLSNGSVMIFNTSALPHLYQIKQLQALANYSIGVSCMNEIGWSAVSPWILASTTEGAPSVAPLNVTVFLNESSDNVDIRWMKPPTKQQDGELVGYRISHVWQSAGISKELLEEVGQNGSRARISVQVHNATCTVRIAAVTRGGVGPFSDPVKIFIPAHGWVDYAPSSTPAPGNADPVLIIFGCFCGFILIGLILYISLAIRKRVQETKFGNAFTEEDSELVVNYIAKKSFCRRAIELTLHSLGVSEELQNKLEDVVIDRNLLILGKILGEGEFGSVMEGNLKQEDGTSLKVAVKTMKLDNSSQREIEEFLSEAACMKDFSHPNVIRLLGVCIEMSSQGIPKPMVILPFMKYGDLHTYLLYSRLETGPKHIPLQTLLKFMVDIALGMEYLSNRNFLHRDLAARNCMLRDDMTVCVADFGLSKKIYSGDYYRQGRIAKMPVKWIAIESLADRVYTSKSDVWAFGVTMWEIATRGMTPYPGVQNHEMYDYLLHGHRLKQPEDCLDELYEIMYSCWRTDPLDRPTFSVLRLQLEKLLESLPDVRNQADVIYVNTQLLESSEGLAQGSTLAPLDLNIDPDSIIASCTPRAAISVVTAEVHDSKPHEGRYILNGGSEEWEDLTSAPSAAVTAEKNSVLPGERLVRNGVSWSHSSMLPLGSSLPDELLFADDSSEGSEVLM
UniProt Q06418, 41-890 limits assumed: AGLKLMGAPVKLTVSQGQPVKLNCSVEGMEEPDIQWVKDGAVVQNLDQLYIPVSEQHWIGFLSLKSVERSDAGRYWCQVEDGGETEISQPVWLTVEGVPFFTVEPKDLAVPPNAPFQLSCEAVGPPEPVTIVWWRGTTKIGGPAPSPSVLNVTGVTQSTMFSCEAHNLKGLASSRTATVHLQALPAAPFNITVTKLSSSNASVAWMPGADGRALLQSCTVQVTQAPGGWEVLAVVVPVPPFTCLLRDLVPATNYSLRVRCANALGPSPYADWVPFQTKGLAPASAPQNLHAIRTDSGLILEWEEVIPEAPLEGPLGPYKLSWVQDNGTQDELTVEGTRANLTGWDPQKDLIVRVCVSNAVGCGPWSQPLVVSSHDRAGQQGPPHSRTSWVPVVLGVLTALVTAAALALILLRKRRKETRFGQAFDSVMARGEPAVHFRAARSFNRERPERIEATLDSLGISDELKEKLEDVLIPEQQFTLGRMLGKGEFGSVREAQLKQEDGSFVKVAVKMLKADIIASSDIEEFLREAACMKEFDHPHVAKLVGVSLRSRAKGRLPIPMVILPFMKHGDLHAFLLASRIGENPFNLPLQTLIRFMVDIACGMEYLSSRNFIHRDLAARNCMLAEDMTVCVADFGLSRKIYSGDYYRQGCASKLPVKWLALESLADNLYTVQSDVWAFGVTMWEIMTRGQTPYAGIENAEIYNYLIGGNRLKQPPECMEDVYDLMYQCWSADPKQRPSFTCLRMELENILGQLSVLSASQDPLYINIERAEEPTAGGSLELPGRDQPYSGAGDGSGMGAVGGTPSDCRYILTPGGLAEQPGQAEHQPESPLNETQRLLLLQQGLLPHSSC
UniProt P08581, 25-1390 limits assumed: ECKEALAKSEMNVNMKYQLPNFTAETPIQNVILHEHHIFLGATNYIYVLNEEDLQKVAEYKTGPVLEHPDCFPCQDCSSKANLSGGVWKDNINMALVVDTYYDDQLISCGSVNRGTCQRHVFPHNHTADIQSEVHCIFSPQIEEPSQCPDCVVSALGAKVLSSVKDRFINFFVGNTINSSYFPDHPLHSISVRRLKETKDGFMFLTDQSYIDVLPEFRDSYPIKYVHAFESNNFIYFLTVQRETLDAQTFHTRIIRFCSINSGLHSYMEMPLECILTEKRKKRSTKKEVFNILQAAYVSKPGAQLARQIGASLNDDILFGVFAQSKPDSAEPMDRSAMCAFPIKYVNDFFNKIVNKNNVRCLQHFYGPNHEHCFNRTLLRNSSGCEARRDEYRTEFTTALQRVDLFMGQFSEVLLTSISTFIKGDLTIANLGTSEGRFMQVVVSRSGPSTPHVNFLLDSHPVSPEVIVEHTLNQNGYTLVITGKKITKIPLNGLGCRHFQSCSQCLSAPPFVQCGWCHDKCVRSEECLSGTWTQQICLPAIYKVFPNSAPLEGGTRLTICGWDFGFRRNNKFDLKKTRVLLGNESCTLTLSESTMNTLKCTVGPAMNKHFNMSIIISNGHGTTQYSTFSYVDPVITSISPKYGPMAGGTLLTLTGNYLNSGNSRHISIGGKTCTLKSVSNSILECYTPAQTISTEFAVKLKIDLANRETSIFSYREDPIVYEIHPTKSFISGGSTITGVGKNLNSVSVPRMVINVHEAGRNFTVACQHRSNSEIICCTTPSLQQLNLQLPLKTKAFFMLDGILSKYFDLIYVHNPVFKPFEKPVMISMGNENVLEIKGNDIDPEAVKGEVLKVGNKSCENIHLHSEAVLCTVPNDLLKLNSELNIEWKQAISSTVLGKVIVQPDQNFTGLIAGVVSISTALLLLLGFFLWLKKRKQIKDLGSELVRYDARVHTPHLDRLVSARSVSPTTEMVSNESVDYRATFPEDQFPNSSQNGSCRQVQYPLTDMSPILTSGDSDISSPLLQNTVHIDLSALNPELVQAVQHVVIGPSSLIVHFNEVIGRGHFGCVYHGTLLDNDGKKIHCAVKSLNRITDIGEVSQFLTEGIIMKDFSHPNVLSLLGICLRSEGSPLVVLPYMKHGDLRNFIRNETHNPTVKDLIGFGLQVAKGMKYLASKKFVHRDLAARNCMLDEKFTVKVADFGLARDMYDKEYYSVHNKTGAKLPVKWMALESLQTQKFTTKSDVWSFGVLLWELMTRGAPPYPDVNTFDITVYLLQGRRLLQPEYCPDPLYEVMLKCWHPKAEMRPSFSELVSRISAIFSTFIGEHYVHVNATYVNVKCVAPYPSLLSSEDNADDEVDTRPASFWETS

What was measured:
Axl = Axl (Homo sapiens, UniProt P30530); experiment: LanthaScreen Eu kinase binding assay, Axl; settings: read-out: Axl kinase binding activity (Kd), Tracer 236
Mer = Mer (Homo sapiens, UniProt Q12866); experiment: LanthaScreen Eu kinase binding assay, Mer; settings: read-out: Mer kinase binding activity (Kd), Tracer 236
TYRO3 = TYRO3 (Homo sapiens, UniProt Q06418); experiment: LanthaScreen Eu kinase binding assay, TYRO3; settings: read-out: TYRO3 kinase binding activity (Kd), Tracer 236
Met = Met (Homo sapiens, UniProt P08581); experiment: LanthaScreen Eu kinase binding assay, Met; settings: read-out: cMet kinase binding activity (Kd), Tracer 236
[1] = tested on: Axl phosphorylation in transiently transfected HEK293T cells; experiment: Cellular Axl phosphorylation assay; settings: read-out: Axl cellular (IC50); HEK293T cells transfected with Axl, 1 hour compound treatment, Phospho-Axl vs Total-Axl

Structure (SMILES) | Kd (Axl) [nM] | Kd (Mer) [nM] | Kd (TYRO3) [nM] | Kd (Met) [nM] | IC50 [1] [nM]
CCOc1cn(CCc2cccnc2)nc1C(=O)Nc1ccc(Oc2ccnc3cc(OC)c(OC)cc23)cn1 | 100 to 1000 | < 100 | 100 to 1000 | 100 to 1000 | 
CCOc1cn(-c2cnccc2CO)nc1C(=O)Nc1ccc(Oc2ccnc3cc(OC)c(OC(F)(F)F)cc23)cc1F | < 100 | < 100 | 100 to 1000 | > 1000 | 
CCOc1cn(C(C)(C)CC(=O)NC)nc1C(=O)Nc1ccc(Oc2ccnc3cc(OC)c(OC)cc23)cn1 | < 100 | < 100 | 100 to 1000 | 100 to 1000 | < 100
